Test results reported in patent US10703778B2, “Cyclic peptide, affinity chromatography support, labeled antibody, antibody drug conjugate, and pharmaceutical preparation” (FUJIFILM Corporation, priority 2015, dated 2020).

Test: Evaluation of plasma stability (residual rate in human plasma, mass spectrometry)
Type: in vitro ADME
Conditions: 20 minutes at room temperature, 0-minute sample = 100%
Procedure: The stability of the cyclic peptide 5 manufactured in Example 5 in human plasma (manufactured by ProMedDX) was evaluated.
Each of the peptides was prepared as a 5 μM aqueous solution, and 2 μL of each of the aqueous solutions was added to 20 μL of the human plasma and left to stand for 20 minutes at room temperature. After 20 minutes, 100 μL of methanol (manufactured by Wako Pure Chemical Industries, Ltd.) was added thereto such that the reaction stopped. After being stirred, the solution was subjected to centrifugation, and the supernatant was collected and named 20-minute sample. Meanwhile, 100 μL of methanol was added to 20 μL of the human plasma, 2 μL of the aqueous peptide solution was added thereto, the solution was stirred and subjected to centrifugation, and the supernatant was collected. The collected supernatant was named 0-minute sample.
Each of the samples was quantified using a mass spectrometer TRIPLE QUAD 5500 (manufactured by AB Sciex Pte. Ltd.). By regarding the quantified value of the 0-minute sample as 100%, the quantified value of the 20-minute sample was calculated as a residual rate.

DX^aAYHRGELVWX^bTKK [Cyclic peptide 91]
rate of change in the binding amount (residual rate) in the human plasma: ≤ 50%
